AlphaSeq binding of Ab-14 heavy chain variants to a spike HR2 peptide

Binding partner: SARS-CoV-2 spike HR2 peptide, sequence PDVDLGDISGINAS.

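These sequences belong to a second round, designed from the earlier measurements on random variants of the parent. Their group label is 14H_GP_Gibbs (GP: Gaussian process model; Gibbs: Gibbs sampling; a sequence that several methods proposed may carry one label only). In AlphaSeq, yeast of one mating type display the scFv and yeast of the other type display the target. Pairs that bind mate more often; barcode pairs of the diploids are counted by sequencing. Read counts were normalised to the haploid input and turned into Kd by a linear fit to BCL2-family pairs of known affinity, for each replicate. Mating was done six times.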

Parent: Ab-14, a human scFv built as VH, a (GGGGS)3 linker, VL. Only the CDRs of the heavy chain vary.
VH: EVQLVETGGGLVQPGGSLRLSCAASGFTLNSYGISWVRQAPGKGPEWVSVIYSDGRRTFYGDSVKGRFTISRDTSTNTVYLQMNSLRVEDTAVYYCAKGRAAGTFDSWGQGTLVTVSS
VL: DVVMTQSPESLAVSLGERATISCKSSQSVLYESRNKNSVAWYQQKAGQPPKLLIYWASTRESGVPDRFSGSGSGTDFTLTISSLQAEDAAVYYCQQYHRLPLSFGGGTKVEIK

Variants are written as CDR1, CDR2 and CDR3 of the heavy chain (limits as in the source). Parent: GFTLNSYGIS, VIYSDGRRTFYGDSVK, GRAAGTFDS. The read-out is the apparent dissociation constant on a log10 scale (nM): the lower, the stronger. Averages over replicates are reported, and they cover detected replicates only. "ND" means that the variant was in the library but no mating with the target was seen in that replicate; the authors take this as a sign of poor binding, and no number exists. Empty control strains, which show no peptide, gave a signal in 1% of pairings with all heavy chain designs; the median was 2.08 and 95% of these signals were weaker than 0.84. No background was subtracted. For each scFv, signals with the empty controls are counted beside the result, with their mean in brackets. Of ten entries with the parent sequence, four were seen in most replicates (averages 0.34 to 2.37), three in one and three in none, so single entries are noisy. The authors' rule: three or more of the six replicates give a measured affinity, fewer mean a poor binder. A sequence measured in both rounds can read differently, since the two assays cover different ranges.

CDR-H1	CDR-H2	CDR-H3	log10 Kd (nM) by replicate	mean, log10 nM	empty controls
GFTLESYGIS	VIYADGRRTFYGDSVK	GKAAGTFDC	ND / ND / ND / ND / ND / ND	ND	0 of 18
GFELNEYGIS	VIYSDGRRTFYSDQVK	GRTAGTFDS	-0.47 / 0.04 / -0.63 / -0.36 / -0.29 / 0.24	-0.24	0 of 18
KFQLNSYGIS	VIYSDGRRTFYIDSVK	GQTAGTFDS	ND / ND / ND / ND / ND / ND	ND	0 of 18
GFTLNSYGIS	VIYADGKRTFYGDSVK	GRAAGTFDK	1.02 / 0.31 / 0.36 / 0.36 / 0.40 / 0.81	0.54	0 of 18
GFDLNSYGIS	VIYSDGKRTFYADKVK	GRTAGTFDS	ND / 1.26 / ND / ND / ND / ND	1.26	0 of 18
GFELNSYGIS	VIYSDGWRTFYTDSVK	GRQAGTFDS	1.27 / 1.82 / ND / 1.81 / 2.44 / 2.32	1.93	0 of 18
GFNLNSYGIS	VIYSDGRRTFYGDSVK	GITAGTFDS	ND / ND / ND / 1.34 / ND / ND	1.34	0 of 18
GEDLNSYGIS	VIYSDGRRTFYGDSVK	GRNAGTFDS	0.61 / 0.51 / 0.72 / 0.34 / 0.35 / 0.68	0.54	0 of 18
GFELNEYGIS	VIYSDGRRTAYGDSVK	GRQAGTFDS	0.15 / -0.14 / -0.03 / -0.01 / -0.02 / 0.17	0.02	0 of 18
GFDLNSYGIS	VIYSDGRRTFYQDMVK	GRTAGTFDS	1.21 / 1.12 / 0.50 / 0.78 / 0.71 / 2.20	1.09	0 of 18
GFNLNSYGIS	VIYSDGRRTFYVDDVK	GRLAGTFDS	0.81 / 2.44 / 1.24 / 1.03 / 1.40 / 1.64	1.43	0 of 18
GFTLNSYGIS	VIYSDGRRTFYGDRVK	GQTAGTFDV	ND / ND / ND / ND / ND / ND	ND	0 of 18
GFDLNSYGIS	VIYSDGRRTFYLDSVK	GQTAGTFDS	0.39 / 0.18 / -0.05 / 0.08 / 0.24 / 0.04	0.15	0 of 18
GFSLNSYGIS	VIYSDGKRTFYGDSVK	GSAAGTFDL	0.03 / 0.50 / 0.41 / 0.34 / 0.10 / 0.07	0.24	0 of 18
GFELNAYGIS	VIYSDGRRTAYGDSVK	GRTAGTFDS	-0.63 / ND / ND / -0.34 / -1.33 / -1.40	-0.93	0 of 18
GFDLNSYGIS	VIYSDGRRTFYVDQVK	GRNAGTFDS	1.24 / 0.71 / 1.44 / 1.02 / 0.94 / 0.83	1.03	0 of 18
GFTLNSYGIS	VIYSDGQRTFYADDVK	GRVAGTFDV	0.03 / 0.02 / 0.26 / -0.12 / 0.07 / 0.32	0.10	0 of 18
KFDLNSYGIS	VIYSDGRRTFYVDSVK	GKTAGTFDS	1.62 / 1.38 / 1.70 / 1.18 / 2.12 / 1.74	1.62	0 of 18
GFDLNSYGIS	VIYSDGLRTFYGDSVK	GKTAGTFDS	-0.03 / -0.32 / ND / 0.44 / 0.54 / 1.02	0.33	0 of 18
GFTLNSYGIS	VIYSDGKRTFYGDDVK	GRNAGTFDS	1.07 / 1.41 / 1.47 / 1.11 / 0.95 / 1.61	1.27	0 of 18
GFDLNSYGIS	VIYSDGRRTFYGDQVK	GKAAGTFDV	-0.13 / -0.11 / 0.04 / 0.49 / 0.16 / 0.26	0.12	0 of 18
GFELNSYGIS	VIYSDGRRTFYGDSVK	GRSAGTFDT	ND / ND / 0.60 / ND / ND / ND	0.60	0 of 18
GFTLNDYGIS	VIYSDGRRTFYGDAVK	GKTAGTFDA	0.49 / 0.32 / 0.48 / 0.04 / 0.62 / 0.49	0.40	0 of 18
GFDLNSYGIS	VIYSDGRRTFYVDSVK	GQAAGTFDF	1.17 / 1.20 / 1.77 / 1.88 / 0.94 / 1.51	1.41	0 of 18
GFQLNSYGIS	VIYSDGRRTFYVDQVK	GRQAGTFDS	0.61 / -0.10 / 0.39 / 0.99 / 0.54 / -0.18	0.38	0 of 18
GFELNSYGIS	VIYSDGRRTFYVDSVK	GQAAGTFDV	0.77 / 0.50 / 0.54 / 1.09 / 1.04 / 1.30	0.87	0 of 18
GFELNSYGIS	VIYSDGRRTFYTDSVK	GKNAGTFDS	0.49 / ND / ND / 0.55 / ND / 1.34	0.80	0 of 18
YFSLNEYGIS	VIYSDGKRTFYGDSVK	GRTAGTFDS	1.12 / ND / ND / ND / ND / 1.59	1.36	0 of 18
GFDLNSYGIS	VIYSDGRRTFYGDSVK	GNAAGTFDF	2.08 / ND / 2.52 / 1.75 / 3.16 / 1.82	2.27	0 of 18
GDSLNSYGIS	VIYSDGRRTFYADSVK	GRTAGTFDS	1.28 / 1.30 / 0.97 / 1.27 / 1.93 / 1.05	1.30	1 of 18 (3.67)
GFSLNSYGIS	VIYSDGRRTFYADMVK	GTAAGTFDS	-0.76 / 0.36 / ND / ND / 0.62 / 1.49	0.43	0 of 18
GFGLNSYGIS	VIYSDGRRTFYHDSVK	GRTAGTFDT	0.67 / 0.22 / 0.24 / 0.29 / 0.52 / 0.41	0.39	0 of 18
GFTLNSYGIS	VIYADGRRTFYGDRVK	GEAAGTFDM	0.22 / 0.16 / 0.32 / 0.19 / -0.09 / 0.44	0.21	0 of 18
GFSLNSYGIS	VIYSDGRRTFYADNVK	GITAGTFDS	0.32 / 1.06 / 0.46 / 1.01 / 0.58 / 0.78	0.70	0 of 18
GFSLNSYGIS	VIYSDGRRTFYGDSVK	GKEAGTFDQ	-0.44 / -0.17 / -0.78 / 0.07 / -0.76 / -0.69	-0.46	0 of 18
GFSLNWYGIS	VIYSDGRRTAYGDSVK	GRQAGTFDS	-0.11 / -0.11 / ND / -0.07 / 0.86 / 0.76	0.27	1 of 18 (0.80)
GFGLNSYGIS	VIYSDGRRTFYADSVK	GHAAGTFDT	1.06 / 1.49 / 0.65 / 0.28 / 1.29 / 1.49	1.04	0 of 18
GFDLNSYGIS	VIYSDGRRTFYGDSVK	GQEAGTFDQ	0.12 / 0.05 / 0.12 / -0.05 / 0.09 / 0.42	0.13	0 of 18
NFDLNSYGIS	VIYSDGRRTFYTDSVK	GQTAGTFDS	1.04 / 0.48 / 0.31 / 0.62 / 0.27 / 0.37	0.51	0 of 18
HFELNSYGIS	VIYSDGRRTFYADSVK	GRVAGTFDS	0.76 / 0.40 / 0.51 / 0.02 / 0.45 / 0.93	0.51	0 of 18
GFQLNSYGIS	VIYADGRRTFYGDSVK	GQAAGTFDK	ND / 0.98 / 1.33 / 0.89 / 1.93 / 1.20	1.27	0 of 18

Top 4 of the variants detected in all replicates, tightest first:

{"CDR-H1": "GFSLNSYGIS", "CDR-H2": "VIYSDGRRTFYGDSVK", "CDR-H3": "GKEAGTFDQ", "log10 Kd (nM) by replicate": "-0.44 / -0.17 / -0.78 / 0.07 / -0.76 / -0.69", "mean, log10 nM": "-0.46", "empty controls": "0 of 18"}
{"CDR-H1": "GFELNEYGIS", "CDR-H2": "VIYSDGRRTFYSDQVK", "CDR-H3": "GRTAGTFDS", "log10 Kd (nM) by replicate": "-0.47 / 0.04 / -0.63 / -0.36 / -0.29 / 0.24", "mean, log10 nM": "-0.24", "empty controls": "0 of 18"}
{"CDR-H1": "GFELNEYGIS", "CDR-H2": "VIYSDGRRTAYGDSVK", "CDR-H3": "GRQAGTFDS", "log10 Kd (nM) by replicate": "0.15 / -0.14 / -0.03 / -0.01 / -0.02 / 0.17", "mean, log10 nM": "0.02", "empty controls": "0 of 18"}
{"CDR-H1": "GFTLNSYGIS", "CDR-H2": "VIYSDGQRTFYADDVK", "CDR-H3": "GRVAGTFDV", "log10 Kd (nM) by replicate": "0.03 / 0.02 / 0.26 / -0.12 / 0.07 / 0.32", "mean, log10 nM": "0.10", "empty controls": "0 of 18"}

The measurements come from Li et al. 2023 (doi:10.1038/s41467-023-39022-2) through the FLAb antibody collection.